Laboratory results from patent publication US7351687B2, “Antibiotic 107891, its factors A1 and A2, pharmaceutically acceptable salts and compositions, and use thereof” (priority 2003, dated 2008).
Converted amounts (≈) assume the structure as drawn.

Test system: Ent. faecalis

C=C1NC(=O)[C@H](Cc2c[nH]c3ccccc23)NC(=O)[C@H](NC(=O)/C(=C/C)NC(=O)[C@@H](N)C(C)C)CSC[C@@H](C(=O)N[C@H]2C(=O)N3CCC[C@H]3C(=O)NCC(=O)N[C@H](C(=O)N[C@H](C(=O)N[C@@H]3CSC[C@@H]4NC(=O)[C@H](CC(N)=O)NC(=O)[C@@H](CSC[C@@H]5NC(=O)[C@H](Cc6ccccc6)NC(=O)[C@@H](CS/C=C\NC5=O)NC4=O)NC(=O)CNC(=O)CNC(=O)CNC(=O)[C@@H]4CCCN4C3=O)[C@@H](C)O)CS[C@H]2C)NC(=O)[C@H](CC(C)C)NC1=O [MF-BA-1768β1, reference compound] gave an MIC of 8 µg/mL (≈ 3.67 µM).
